Columns and labels:
5-HT-6 receptor = assay: standard uptake assay using labeled 5-HT for IC50 at 5-HT-6 receptor; conditions: read-out: IC50 for 5-HT-6 receptor; in vitro; typical result (FIG. 4)
Protocol: (§1) The in vitro inhibitory profile of an illustrative 5HT6—D3/DAT compound, CNS-25,100, was determined by measuring its IC50 using standard assays.
Similarly, IC50 for 5-HT-6 receptor can be measured using a standard uptake assay using labled 5-HT. See Rudolph et al., J. Pharmacol. Exp. Ther. 287(1): 389-94, 1998. Briefly, the time course of the 5HT uptake can be determined by incubating each cell/tissue with the receptor at different periods in containers containing 2 ml of RBS without Ca++ at 30° C. in which [^3H]5HT (38 nM) is added. For estimating the kinetic parameters of 5HT uptake, several concentrations of [^3H]5HT may be used, ranging, for example, from 25 to 240 mM, using a 30-min incubation period. Corresponding incubations were conducted in a Na+-free medium to correct for nonspecific uptake. Radioactivity not incorporated by the tissue/cell is washed off by further incubation for 10 min in 100 ml of RBS. The tissue/cell is homogenized in 2 ml of 10% perchloric acid at the end of the incubation. The resulting suspension is centrifuged at 600×g for 5 min and 0.1 ml of the supernatant is analyzed for radioactivity.

Sequences of proteins named here, by UniProt entry; tags and fusion partners are left off.
UniProt Q01959, whole entry: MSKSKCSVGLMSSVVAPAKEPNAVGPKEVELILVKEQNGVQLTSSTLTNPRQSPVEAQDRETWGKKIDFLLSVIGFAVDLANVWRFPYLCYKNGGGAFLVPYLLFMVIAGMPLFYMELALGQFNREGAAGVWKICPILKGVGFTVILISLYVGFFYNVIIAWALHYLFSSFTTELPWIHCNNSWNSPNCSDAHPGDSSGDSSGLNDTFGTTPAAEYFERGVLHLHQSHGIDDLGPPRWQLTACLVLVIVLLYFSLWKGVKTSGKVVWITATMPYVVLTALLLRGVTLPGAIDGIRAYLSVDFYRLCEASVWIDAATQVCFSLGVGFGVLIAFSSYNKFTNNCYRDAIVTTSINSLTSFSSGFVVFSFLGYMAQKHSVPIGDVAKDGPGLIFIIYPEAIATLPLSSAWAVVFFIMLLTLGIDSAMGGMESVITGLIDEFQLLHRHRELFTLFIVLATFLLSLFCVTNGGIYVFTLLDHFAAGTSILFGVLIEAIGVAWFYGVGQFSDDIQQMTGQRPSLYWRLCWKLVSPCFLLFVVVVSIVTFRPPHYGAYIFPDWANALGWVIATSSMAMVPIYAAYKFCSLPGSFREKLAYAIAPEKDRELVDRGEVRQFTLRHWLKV

DAT (SLC6A3) = DAT (SLC6A3) (Homo sapiens, UniProt Q01959); assay: uptake assay for measuring IC50 of DAT; conditions: read-out: IC50 against DAT (SLC6A3); in vitro, cells expressing DAT; typical result (FIG. 4)
Protocol: as §1
In a typical uptake assay for measuring IC50 of DAT, the assay is performed at room temperature in Krebs-Ringer's-HEPES (KRH) buffer (125 mM NaCl, 4.8 mM KCl, 1.2 mM MgSO4, 1.2 mM KH2PO4, 1.3 mM CaCl2, and 25 mM HEPES, pH 7.4), supplemented with 0.1% D-glucose, 1 mM ascorbic acid, 1 mM tropolone [catechol-O-methyltransferase (EC 2.1.1.6)-inhibitor] and 10 μM pargyline (monoamine oxidase-B inhibitor). Before the assay, cells expressing DAT are washed once with KRH and equilibrated for 5 min. The cells may be assayed in 24-well plates and incubated for 2-5 min with tritiated amines. Nontransported inhibitors were preincubated for 5 min, and substrates were applied together with the tritiated substrate. The uptake assay is terminated with two washes of ice-cold KRH, and the accumulated radioactivity is recovered by lysing the cells in 0.2% SDS and 0.1 N NaOH and counting on a Liquid Scintillation Analyzer 1900 TR (Packard, Meriden, Conn.). Nonspecific uptake can be determined in the presence of 10 μM GBR12909 (for hDAT). […]
Vmax values for amine uptake in stable transfected DAT-cells are determined in parallel assays for at least two amines per experiment and expressed as relative values.

IC50 (5-HT-6 receptor): 30 to 45 nM
IC50 (DAT (SLC6A3)): 40 to 60 nM
SMILES: CC1CCC(c2nc(C3(c4ccccc4F)CCCC3)cs2)CN1C1(c2ccc(Cl)cc2)CCC1 (centres unmarked)

— patent US20080300259A1
